# In US9540362B2, “Sphingosine-1-phosphate receptor agonists, methods of preparing the same, and pharmaceutical compositions containing the same as an active agent” (LG LIFE SCIENCES LTD., priority 2013, dated 2017):
# By UniProt entry, the sequences of proteins in these tests, tags left out.
# UniProt P21453, whole entry: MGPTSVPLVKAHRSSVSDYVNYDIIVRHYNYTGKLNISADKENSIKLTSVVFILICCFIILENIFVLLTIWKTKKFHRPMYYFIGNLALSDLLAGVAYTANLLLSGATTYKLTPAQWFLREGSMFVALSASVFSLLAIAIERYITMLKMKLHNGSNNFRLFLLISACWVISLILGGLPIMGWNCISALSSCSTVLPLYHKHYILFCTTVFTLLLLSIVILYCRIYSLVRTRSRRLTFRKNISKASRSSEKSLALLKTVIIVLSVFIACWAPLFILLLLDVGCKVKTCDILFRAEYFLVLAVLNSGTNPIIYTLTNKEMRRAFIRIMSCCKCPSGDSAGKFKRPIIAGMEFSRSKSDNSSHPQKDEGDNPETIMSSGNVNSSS
# Biological target: human sphingosine-1-phosphate 1 receptor (S1P1 receptor) (Homo sapiens, UniProt P21453)
# Assay: Ca2+ inducing ability using CHO cells overexpressing human S1P1 receptor (Calcium 5 assay kit)
# Assay type: cell-based
# Details: CHO cells overexpressing human S1P1, calcium RFU; S1P 1 μM = 100%
# Source text: Evaluation of Ca^2+ inducing ability of test compound using a cell line expressing human sphingosine-1-phosphate
# CHO (Chinese hamster ovary) cells which overexpress human sphingosine-1-phosphate 1 receptor (S1P1 receptor) that react with sphingosine-1-phosphate (S1P) are used for a functional test method wherein an increase of calcium indicates a therapeutic efficacy of an agonist compound. CHO-K1 cells, which are used for preparing a stable cell line, show no change in the calcium concentration by S1P, and thus they are good for checking signals from human S1P receptors after transfecting each subtype of the cells with the receptors.
# To prepare CHO cells which overexpress human S1P1˜S1P5, human clones for each subtype having HA at the N terminal residue (S1P1: EDG010TN00, S1P2: EDG020TN00, S1P3: EDG030TN00, S1P4: EDG060TN00, S1P5: EDG080TN00) were purchased from the Missouri S&T cDNA Resource Center and co-transfected with G-protein alpha subunit (G-alpha-16) into CHO-K1 cells. After separating cells by FACS (fluorescence-activated cell sorting, LK BioScience, JSAN) using HA-antibodies (MACS, Anti-HA-PE), they were selectively cultured in the medium with 10% FBS (Gibco, USA), 0.5 mg/mL Geneticin (Gibco) and 0.2 mg/mL Hygromycin B F12 (Gibco) to obtain the desired cells.
# A calcium measurement kit (Calcium 5 assay kit, Molecular Devices) was used to select an agonist compound. […]
smiles,measurement,value
"CCCCCCCCc1ccc(CCC(N)(CO)CO)cc1 [FTY-720, Fingolimod, reference compound]",EC50,3 nM
